Data reported in paper doi:10.1101/2024.07.29.605666v2, “Effects of two different compounds on seizure suppression using the zebrafish PTZ-seizure model” (bioRxiv, 2024).

System: zebrafish larvae
Test: Bio-distribution of fluorescently labelled peptides by fluorescence microscopy
Assay type: in vivo, zebrafish (Danio rerio)
Settings: TMR-labelled tripeptide 10 μg/ml in water, 6 dpf larvae, 1, 6, 18 and 24 h exposure, 26±2°C, n=3 each time
Description: Bio-distribution analysis was conducted on Tripeptide and CX2, labeled with tetramethylrhodamine-TMR and carboxytetramethylrhodamine – TAMRA, respectively.
Larvae at 6 dpf were transferred to a 96-well plate, with one larva per well, containing 100 μL of aquarium water. Subsequently, 100 μL of the Tripeptide compound at 20 μg/mL or CX2 at 1 μM was added according to the respective group, totalizing 200 ml of solution at final concentration of 10 μg/ml for Tripeptide and 0.5 μM for CX2. Exposure times for both compound groups were 1, 6, 18, and 24 hours (n=3 each time). The control group underwent similar manipulation but in water only. The incubation temperature during the experiments was maintained at 26±2°C. upon completion of exposure, larvae were rapidly and carefully transferred to a Becker containing 0.02% tricaine (Tricaine, Sigma) for approximately 2 minutes. Subsequently, the larvae were transferred to a Petri dish containing 1% agarose as a base, along with a drop of water. Larvae were examined and photographed using the Multizoon AZ100 microscope (Nikon, Tokyo, Japan) at 2X magnification. Two photographs of each larva were taken, one in black and white, and the other capturing only the fluorescence emission. Imaging merging was performed using the NIS-Elements software (Nikon, Tokyo, Japan). […]

For Glu-Val-Trp [Tripeptide], which “detection in the brain (fluorescence)” value is on record?
Its value is “did not reach the brain”.

What about the “distribution in the body (fluorescence)” value of the same substance?
The value was “predominantly retained in the zebrafish intestine”.
